What was measured:
rat TRPV1 [1] = biological target: T1, rat TRPV1 (Rattus norvegicus, UniProt O35433); test: Ca^2+ imaging (Fura-2) in HEK293 cells stably expressing rat TRPV1; type: cell-based; settings: ratiometric fura-2 imaging
[2] = test system: voltage gated Na+ channels; test: Neuronal Na+ currents after cap-ET and/or QX-314 loading, whole-cell recording; settings: PAO or cap-ET alone (10 μM), then 5 mM QX-314
rat TRPV1 [3] = biological target: T1, rat TRPV1; test: YO-PRO-1 uptake (imaging / plate-reader) in TRPV1-expressing cells; type: cell-based; settings: 1 μM PDBu or 10 μM PAO

By UniProt entry, the sequences of proteins in these tests, tags left out.
UniProt O35433, whole entry, looked up: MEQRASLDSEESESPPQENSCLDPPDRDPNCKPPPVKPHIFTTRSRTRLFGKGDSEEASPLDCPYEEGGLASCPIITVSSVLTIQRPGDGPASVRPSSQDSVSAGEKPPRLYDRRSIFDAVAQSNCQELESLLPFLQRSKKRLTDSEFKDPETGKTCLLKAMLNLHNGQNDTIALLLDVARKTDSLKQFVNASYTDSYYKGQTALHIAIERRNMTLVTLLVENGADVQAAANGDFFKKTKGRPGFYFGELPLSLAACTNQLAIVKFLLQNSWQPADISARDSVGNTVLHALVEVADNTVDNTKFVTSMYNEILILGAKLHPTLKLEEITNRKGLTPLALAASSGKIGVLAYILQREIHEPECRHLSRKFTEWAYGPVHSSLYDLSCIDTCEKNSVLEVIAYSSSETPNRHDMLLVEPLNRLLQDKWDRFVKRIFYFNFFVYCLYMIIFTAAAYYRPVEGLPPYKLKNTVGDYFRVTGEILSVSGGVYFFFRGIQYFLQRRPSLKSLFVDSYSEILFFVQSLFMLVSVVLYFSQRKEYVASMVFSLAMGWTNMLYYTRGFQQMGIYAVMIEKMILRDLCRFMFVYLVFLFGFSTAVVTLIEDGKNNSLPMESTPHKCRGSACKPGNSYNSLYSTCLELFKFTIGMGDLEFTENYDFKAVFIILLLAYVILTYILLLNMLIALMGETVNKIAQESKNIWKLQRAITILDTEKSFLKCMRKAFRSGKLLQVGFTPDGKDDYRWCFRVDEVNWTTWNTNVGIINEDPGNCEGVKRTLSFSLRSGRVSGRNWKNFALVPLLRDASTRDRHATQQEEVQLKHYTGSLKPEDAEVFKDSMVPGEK

Compound	intracellular Ca^2+ level on extracellular application (rat TRPV1 [1])	Na+ current density after QX-314, agent alone [2]	effect on potency of capsaicin or cap-ET for YO-PRO-1 uptake (rat TRPV1 [3])
capsaicin O-butyl(trimethylammonium) acetate	effectively raised intracellular Ca^2+ levels	–	–
O=[As]c1ccccc1 (stereo not drawn)	–	comparable to cells not exposed to QX-314	increased the potency
